Source: patent US12109284B2, “Compositions comprising fluoride and calcium and method for preparing them” (DENTHERAPY LTD, priority 2016, dated 2024)

Key:
[1] = Four-day cycling treatment microindentation model (Example 6); design: species or system human
Description: A four-day cycling treatment microindentation model to further assess the remineralisation potential for a formulation produced according to the following procedure (referred to as MOF).
Human enamel lesions were treated five times a day for four days with either a MOF formulation with a new batch of OPN-10 (ToothBoost New (2016) OPN), a MOF formulation with an older batch of OPN-10 (ToothBoost Old OPN), a 500 ppm fluoride solution (produced from monofluorophosphate) or deionised water.
The formulations were applied to the enamel lesions using a spray pump with the intention to align the study with prospective in vivo product use. A single actuation of the spray pump delivers approximately 0.15 g of product. The treatment procedure is as follows: • The enamel specimens were placed into artificial saliva at 37° C. for 1 hour before the start of the study. • The enamel specimens were removed from the artificial saliva and gently blotted with tissue paper to remove excess moisture. • The four groups were then selected and placed into a dedicated container, one for each group. • Each enamel specimen was then sprayed with approximately 0.15 g of either MOF new OPN-10, MOF old OPN-10, 500 ppm fluoride solution or deionised water. • The enamel was then returned to the artificial saliva and incubated at 37° C. for 1 hour. • The treatment process was repeated a total of five time in a day. • At the end of the day the enamel was rested in artificial saliva at room temperature. • The treatment process was repeated a total of four days. • After days one, two and four the microhardness of the enamel was measured by microindentation.

[2] = Vickers microindentation of treated erosive lesions, seven days (Example 7); design: species or system bovine
Text: A collaborative study was setup to measure the remineralisation of erosive lesions in bovine enamel after treatment five times a day for seven days. The intention of the study was to 1.
10 mm diameter enamel cores were trepanned from the facial side of bovine incisors and mounted in 25 mm diameter resin discs. The underside of the disc was flattened using p60 grit paper and the enamel side ground with p600 paper to expose the enamel and the surface polished using 1200 and then 2500 grit paper and finally 1 um diamond polish to reveal a highly-polished enamel surface. […]
The microhardness measurements of the enamel was made using a Vickers diamond-tip indenter. Each hardness value was determined from the average of ten individual measurements made centrally on each specimen using 0.2N force over an indent time of 20 seconds. The indent size was measured using ×50 magnification which was then converted to microhardness values.
(§1) An initial microindentation measurement of the sound (non-treated) enamel was first made to ensure the enamel is sufficiently mineralised for the purpose of this study, microhardness acceptance criteria is >350 VHN. […] The enamel specimens were then posted to Calcivis for luminescence measurements and on their return the following treatments were made. […]
The change in microhardness was calculated as a percent of the baseline value. […]

[3] = Calcivis calcium luminescence imaging of treated erosive lesions, seven days (Example 7); design: species or system bovine
Text: The Calcivis Imaging System is a method to measure free calcium ions from within the fluid filled pores of dental enamel. In cases where caries lesions are present, or where acid erosion has taken place, free calcium ion concentration is increased within the pores. This increase in concentration provides a marker for the Calcivis Imaging System to detect active de-mineralisation associated with caries activity and enamel erosion.
Assessment was made by imaging the samples as a monochrome image under visible lighting, followed by a luminescent image obtained by applying 50 μL of freshly reconstituted CALCIVIS photoprotein to the enamel surface in the dark. Any luminescent signal detected by the sensor is therefore a result of the reaction between the photoprotein and free calcium ions on the enamel surface. […]
To allow quantitative analysis of the samples the mean pixel intensity of a 100px radius circle in the centre of the image was measured.
as §1

Substance: monofluorophosphate
- Change in microhardness as a percentage increase from the acid eroded enamel lesions ([1]; Cycle 1): 6.66%
- Change in microhardness as a percentage increase from the acid eroded enamel lesions ([1]; Cycle 2): 12.33%
- Change in microhardness as a percentage increase from the acid eroded enamel lesions ([1]; Cycle 4): 16.85%
- Change in enamel hardness from eroded enamel ([2]; after treatment for seven days): 25.39%
- Remineralisation compared to deionised water (negative control) ([2]; microindentation, seven days): significant remineralisation
- Change in enamel luminescence from eroded enamel ([3]; after treatment for seven days): 92.44%
- Remineralisation compared to deionised water (negative control) ([3]; luminescence, seven days): significant remineralisation
